Earlier results on 1 molecule are cited in patent publication US7247438B1, “Methods of identifying agents which enhance caspase activity” (priority 1997, dated 2007).

SMILES strings stand for the structures.

The data set concerns the target T1, caspase-3 (Homo sapiens, UniProt P42574).
T1 sequence (P42574 29-175 limits assumed): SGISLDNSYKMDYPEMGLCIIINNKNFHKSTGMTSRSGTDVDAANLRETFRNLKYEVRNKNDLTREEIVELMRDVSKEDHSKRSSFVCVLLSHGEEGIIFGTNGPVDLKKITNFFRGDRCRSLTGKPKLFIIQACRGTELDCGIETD
T1 sequence (P42574 176-277 limits assumed): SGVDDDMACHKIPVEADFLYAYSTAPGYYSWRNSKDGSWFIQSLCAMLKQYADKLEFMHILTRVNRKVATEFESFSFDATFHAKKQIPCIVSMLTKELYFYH
The settings on record: caspase-3 versus caspase-1; cited from earlier work.

With `CC(=O)N[C@@H](CC(=O)O)C(=O)N[C@@H](CCC(=O)O)C(=O)N[C@H](C(=O)N[C@H](C=O)CC(=O)O)C(C)C` [Ac-DEVD-CHO], the “times better inhibition of caspase-3 than caspase-1” value was 49 times.
